This is a selection; strong and weak results do not stand in their true shares. Some of these compounds have results that are not shown, active ones among them. Calls of active or inactive are those of the source.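 Rule for the calls: active = activation above 40% with more than 50 cells counted in the well; inconclusive = wells holding fewer than 50 cells, flagged as toxic or sparse; inactive = the rest.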

Sequences of proteins named here, by UniProt entry; tags and fusion partners are left off.
UniProt Q9Y2T6, whole entry: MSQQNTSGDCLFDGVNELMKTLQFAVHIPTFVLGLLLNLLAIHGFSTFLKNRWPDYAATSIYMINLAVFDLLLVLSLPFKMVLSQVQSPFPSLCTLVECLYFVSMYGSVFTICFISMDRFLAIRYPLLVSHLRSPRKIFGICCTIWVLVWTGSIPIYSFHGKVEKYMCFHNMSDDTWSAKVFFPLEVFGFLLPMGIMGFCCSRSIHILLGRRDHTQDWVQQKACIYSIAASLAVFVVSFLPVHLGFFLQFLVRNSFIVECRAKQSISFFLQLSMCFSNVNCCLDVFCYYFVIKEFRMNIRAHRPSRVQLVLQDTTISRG

This experiment concerns the target G-protein coupled receptor 55 (Homo sapiens) (UniProt Q9Y2T6). As to the kind of experiment: selective activators of receptor GPR55 – imaging, U2OS cells, beta-arrestin-GFP redistribution, primary screen (AID 1961).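 Note: U2OS osteosarcoma cells stably expressing GPR55 and beta-arrestin-GFP; plate controls were DMSO negative control for no effect and LPI positive control for full effect.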 The conditions noted are these: at 10 µM, active compounds read high.
For `CC(C)N1C(=O)CC2(CCN(CCOC(=O)C(O)(c3ccccc3)c3ccccc3)CC2)C1=O`, the activation was inactive: 0%.

For `CCN(CC)CC(C)C(C)OC(=O)C(O)(c1ccccc1)c1ccccc1` (centres undefined), the activation was inactive: 0.4%.

With `COc1cc(SC)ccc1C(=O)NCC1(N(C)C)CCCCC1`, the activation was inactive: 0%.

As to `Cc1ccc(C(=O)NCC2(N3CCCCC3)CCCCC2)cc1`, the activation is inactive: -0.2%.

Take `O=C(NCC1(N2CCCCC2)CCCCC1)c1cc([N+](=O)[O-])ccc1Cl`: the activation is inactive: 0.4%.

Turning to `CN1[C@@H]2CC[C@H]1CC(OC(=O)C(O)(c1ccccc1)c1ccccc1)C2` (some centres undefined), the activation was inactive: -0.1%.

For `C=CCN1CCN(CCOC(=O)C(O)(c2ccccc2)c2ccccc2)CC1`, the activation was inactive: 0%.

With `O=C(NCC1(N2CCCCC2)CCCCC1)c1cc(F)c(F)cc1Cl`, the activation is inactive: -0.2%.

Take `CCN1CCCC(OC(=O)C2(O)c3ccccc3C=Cc3ccccc32)C1` (centres undefined): the activation was inactive: -0.3%.

For `Cc1cc(C(=O)NCC2(N3CCCCC3)CCCCC2)ccc1[N+](=O)[O-]`, the activation was inactive: -0.1%.

On to `O=C(NCC1(N2CCCCC2)CCCCC1)c1cccc(Br)c1`, for which the activation was inactive: 0.3%.

Regarding `COc1ccc(C(=O)NCC2(N(C)C)CCCCC2)cc1`, the activation is inactive: -0.1%.

Turning to `Cc1ccccc1C(=O)NCC1(N2CCCCC2)CCCCC1`, the activation was inactive: 0.7%.

On to `CN(C)c1ccc(C(=O)NCC2(N(C)C)CCCCC2)cc1`, for which the activation is inactive: 0%.

As to `CN(C)C1CCCC1OC(=O)C(O)(c1ccccc1)c1ccccc1` (centres undefined), the activation is inactive: -0.1%.

On to `COc1cccc(C(=O)NCC2(N3CCCCC3)CCCCC2)c1`, for which the activation is inactive: -0.7%.

On to `COc1ccc(Cl)cc1C(=O)NCC1(N(C)C)CCCCC1`, for which the activation is inactive: 0.4%.

As to `O=C(NCC1(N2CCCCC2)CCCCC1)c1cccc(Cl)c1`, the activation is inactive: 0.5%.

For `CN(C)C1(CNC(=O)c2ccc(Br)cc2)CCCCC1`, the activation is inactive: -0.3%.

Turning to `COc1cc(C(=O)NCC2(N(C)C)CCCCC2)c([N+](=O)[O-])cc1OC`, the activation is inactive: -0.1%.

Consider `COc1ccc(Br)c(C(=O)NCC2(N3CCCCC3)CCCCC2)c1`, for which the activation is inactive: -0.3%.

Consider `CN(C)c1cccc(C(=O)NCC2(N(C)C)CCCCC2)c1`, for which the activation was inactive: -0.3%.

Consider `CC(C)Oc1ccc(C(=O)NCC2(N(C)C)CCCCC2)cc1`, for which the activation is inactive: -0.1%.

Turning to `O=C(OC1CN2CCC1CC2)C(CO)(c1ccccc1)c1ccccc1` (centres undefined), the activation is inactive: -0.2%.

Source of the values: PubChem BioAssay AID1961 (Sanford-Burnham Center for Chemical Genomics, 2009).
